# Assay results: patent US20140100156A1 (SANOFI, priority 2012, published 2014)
# Chains of the proteins cited; added tags and fusions are not shown. Residues count along the entry.
# UniProt P43220, 24-463: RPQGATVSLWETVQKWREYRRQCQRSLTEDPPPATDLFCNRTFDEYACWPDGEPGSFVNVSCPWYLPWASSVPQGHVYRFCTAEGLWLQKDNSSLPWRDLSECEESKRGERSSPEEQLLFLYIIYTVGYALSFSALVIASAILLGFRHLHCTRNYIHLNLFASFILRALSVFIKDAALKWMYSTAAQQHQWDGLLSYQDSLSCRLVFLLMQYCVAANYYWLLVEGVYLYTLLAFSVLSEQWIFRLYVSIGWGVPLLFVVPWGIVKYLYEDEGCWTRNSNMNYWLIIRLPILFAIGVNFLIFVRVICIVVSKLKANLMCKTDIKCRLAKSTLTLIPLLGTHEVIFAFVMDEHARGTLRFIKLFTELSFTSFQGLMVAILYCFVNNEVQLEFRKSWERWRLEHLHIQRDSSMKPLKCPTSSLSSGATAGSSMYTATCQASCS
# UniProt P47871, 26-477: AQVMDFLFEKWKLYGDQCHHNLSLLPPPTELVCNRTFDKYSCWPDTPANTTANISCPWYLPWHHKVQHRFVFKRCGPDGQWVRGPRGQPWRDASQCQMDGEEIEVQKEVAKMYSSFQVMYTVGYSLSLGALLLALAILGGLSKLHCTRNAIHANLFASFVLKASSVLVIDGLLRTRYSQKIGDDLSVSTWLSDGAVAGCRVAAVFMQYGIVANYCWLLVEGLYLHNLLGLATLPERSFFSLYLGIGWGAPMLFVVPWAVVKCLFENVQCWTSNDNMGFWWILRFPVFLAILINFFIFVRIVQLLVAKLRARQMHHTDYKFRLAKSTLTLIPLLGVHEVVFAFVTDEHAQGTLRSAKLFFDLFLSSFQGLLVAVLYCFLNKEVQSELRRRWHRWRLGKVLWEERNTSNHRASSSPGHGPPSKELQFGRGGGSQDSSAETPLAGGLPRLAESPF
# Experiments:
# human GLP-1 receptor = target: T1, human GLP-1 receptor (Homo sapiens, UniProt P43220); experiment: cAMP response (HTRF) of HEK-293 cells stably expressing human GLP-1 receptor; format: cell-based; conditions: Table 5; cAMP, HEK-293; read-out: EC50 hGLP-1R
# T1 construct: expressed in transfected cells; host or cells: HEK-293
# human glucagon receptor = target: T2, human glucagon receptor (Homo sapiens, UniProt P47871); experiment: cAMP response (HTRF) of HEK-293 cells stably expressing human glucagon receptor; format: cell-based; conditions: Table 5; cAMP, HEK-293; read-out: EC50 hGlucagon-R
# T2 construct: expressed in transfected cells; host or cells: HEK-293
structure (smiles),measurement,setting,value
CCCCCCCCCCCCCCCC(=O)N[C@@H](CCC(=O)NCCCC[C@H](NC(=O)[C@H](CCC(N)=O)NC(=O)[C@H](CCCCN)NC(=O)[C@H](CO)NC(=O)[C@H](CC(C)C)NC(=O)[C@H](CC(=O)O)NC(=O)[C@H](CO)NC(=O)[C@@H](NC(=O)[C@H](Cc1ccccc1)NC(=O)[C@@H](NC(=O)CNC(=O)[C@H](CCC(N)=O)NC(=O)[C@@H](CO)NC(=O)[C@@H](N)Cc1c[nH]cn1)[C@@H](C)O)[C@@H](C)O)C(=O)N[C@@H](CCC(=O)O)C(=O)N[C@@H](CCC(=O)O)C(=O)N[C@@H](CCC(=O)O)C(=O)N[C@@H](C)C(=O)N[C@@H](C)C(=O)N[C@@H](CCCCN)C(=O)N[C@@H](CC(C)C)C(=O)N[C@@H](Cc1ccccc1)C(=O)N[C@H](C(=O)N[C@@H](CCC(=O)O)C(=O)N[C@@H](Cc1c[nH]c2ccccc12)C(=O)N[C@@H](CC(C)C)C(=O)N[C@@H](CCCCN)C(=O)N[C@@H](C)C(=O)NCC(=O)NCC(=O)N1CCC[C@H]1C(=O)N[C@@H](CO)C(=O)N[C@@H](CO)C(=O)NCC(=O)N[C@@H](C)C(=O)N1CCC[C@H]1C(=O)N1CCC[C@H]1C(=O)N1CCC[C@H]1C(=O)N[C@@H](CO)C(N)=O)[C@@H](C)CC)C(=O)O [compound 19],EC50,human GLP-1 receptor,1.9 pM
same,EC50,human glucagon receptor,104 pM
CCCCCCCCCCCCCCCC(=O)N[C@@H](CCC(=O)NCCCC[C@H](NC(=O)[C@H](CCC(N)=O)NC(=O)[C@H](CCCCN)NC(=O)[C@H](CO)NC(=O)[C@H](CC(C)C)NC(=O)[C@H](CC(=O)O)NC(=O)[C@H](CO)NC(=O)[C@@H](NC(=O)[C@H](Cc1ccccc1)NC(=O)[C@@H](NC(=O)CNC(=O)[C@H](CCC(N)=O)NC(=O)[C@@H](CO)NC(=O)[C@@H](N)Cc1c[nH]cn1)[C@@H](C)O)[C@@H](C)O)C(=O)N[C@@H](CCC(=O)O)C(=O)N[C@@H](CO)C(=O)N[C@@H](CCC(=O)O)C(=O)N[C@@H](C)C(=O)N[C@@H](C)C(=O)N[C@@H](CCC(N)=O)C(=O)N[C@@H](CC(=O)O)C(=O)N[C@@H](Cc1ccccc1)C(=O)N[C@H](C(=O)N[C@@H](CCC(=O)O)C(=O)N[C@@H](Cc1c[nH]c2ccccc12)C(=O)N[C@@H](CC(C)C)C(=O)N[C@@H](CCCCN)C(=O)N[C@@H](C)C(=O)NCC(=O)NCC(=O)N1CCC[C@H]1C(=O)N[C@@H](CO)C(=O)N[C@@H](CO)C(=O)NCC(=O)N[C@@H](C)C(=O)N1CCC[C@H]1C(=O)N1CCC[C@H]1C(=O)N1CCC[C@H]1C(=O)N[C@@H](CO)C(N)=O)[C@@H](C)CC)C(=O)O [compound 20],EC50,human GLP-1 receptor,3.8 pM
same,EC50,human glucagon receptor,104 pM
CCCCCCCCCCCCCCCC(=O)N[C@@H](CCC(=O)NCCCC[C@H](NC(=O)[C@H](CCC(N)=O)NC(=O)[C@H](CCCCN)NC(=O)[C@H](CO)NC(=O)[C@H](CC(C)C)NC(=O)[C@H](CC(=O)O)NC(=O)[C@H](CO)NC(=O)[C@@H](NC(=O)[C@H](Cc1ccccc1)NC(=O)[C@@H](NC(=O)CNC(=O)[C@H](CCC(N)=O)NC(=O)[C@@H](CO)NC(=O)[C@@H](N)Cc1c[nH]cn1)[C@@H](C)O)[C@@H](C)O)C(=O)N[C@@H](CCC(=O)O)C(=O)N[C@@H](CO)C(=O)N[C@@H](CCC(=O)O)C(=O)N[C@@H](C)C(=O)N[C@@H](C)C(=O)N[C@@H](CCC(N)=O)C(=O)N[C@@H](CC(C)C)C(=O)N[C@@H](Cc1ccccc1)C(=O)N[C@H](C(=O)N[C@@H](CCC(=O)O)C(=O)N[C@@H](Cc1c[nH]c2ccccc12)C(=O)N[C@@H](CC(C)C)C(=O)N[C@@H](CCCCN)C(=O)N[C@@H](C)C(=O)NCC(=O)NCC(=O)N1CCC[C@H]1C(=O)N[C@@H](CO)C(=O)N[C@@H](CO)C(=O)NCC(=O)N[C@@H](C)C(=O)N1CCC[C@H]1C(=O)N1CCC[C@H]1C(=O)N1CCC[C@H]1C(=O)N[C@@H](CO)C(N)=O)[C@@H](C)CC)C(=O)O [compound 21],EC50,human GLP-1 receptor,3.8 pM
same,EC50,human glucagon receptor,144 pM
CCCCCCCCCCCCCCCC(=O)N[C@@H](CCC(=O)NCCCC[C@H](NC(=O)[C@H](CCC(N)=O)NC(=O)[C@H](CCCCN)NC(=O)[C@H](CO)NC(=O)[C@H](CC(C)C)NC(=O)[C@H](CC(=O)O)NC(=O)[C@H](CO)NC(=O)[C@@H](NC(=O)[C@H](Cc1ccccc1)NC(=O)[C@@H](NC(=O)CNC(=O)[C@H](CCC(N)=O)NC(=O)[C@@H](CO)NC(=O)[C@@H](N)Cc1c[nH]cn1)[C@@H](C)O)[C@@H](C)O)C(=O)N[C@@H](CC(=O)O)C(=O)N[C@@H](CCC(=O)O)C(=O)N[C@@H](CCCCN)C(=O)N[C@@H](C)C(=O)N[C@@H](C)C(=O)N[C@@H](CCC(N)=O)C(=O)N[C@@H](CC(=O)O)C(=O)N[C@@H](Cc1ccccc1)C(=O)N[C@H](C(=O)N[C@@H](CCC(=O)O)C(=O)N[C@@H](Cc1c[nH]c2ccccc12)C(=O)N[C@@H](CC(C)C)C(=O)N[C@@H](CCCCN)C(=O)N[C@@H](C)C(=O)NCC(=O)NCC(=O)N1CCC[C@H]1C(=O)N[C@@H](CO)C(=O)N[C@@H](CO)C(=O)NCC(=O)N[C@@H](C)C(=O)N1CCC[C@H]1C(=O)N1CCC[C@H]1C(=O)N1CCC[C@H]1C(=O)N[C@@H](CO)C(N)=O)[C@@H](C)CC)C(=O)O [compound 22],EC50,human GLP-1 receptor,1.1 pM
same,EC50,human glucagon receptor,2.4 pM
CCCCCCCCCCCCCCCC(=O)N[C@@H](CCC(=O)NCCCC[C@H](NC(=O)[C@H](CCC(N)=O)NC(=O)[C@H](CCCCN)NC(=O)[C@H](CO)NC(=O)[C@H](CC(C)C)NC(=O)[C@H](CC(=O)O)NC(=O)[C@H](CO)NC(=O)[C@@H](NC(=O)[C@H](Cc1ccccc1)NC(=O)[C@@H](NC(=O)CNC(=O)[C@H](CCC(N)=O)NC(=O)[C@@H](CO)NC(=O)[C@@H](N)Cc1c[nH]cn1)[C@@H](C)O)[C@@H](C)O)C(=O)N[C@@H](CCC(=O)O)C(=O)N[C@@H](CCC(=O)O)C(=O)N[C@@H](CCCCN)C(=O)N[C@@H](CCCCN)C(=O)N[C@@H](C)C(=O)N[C@@H](CCCCN)C(=O)N[C@@H](CC(C)C)C(=O)N[C@@H](Cc1ccccc1)C(=O)N[C@H](C(=O)N[C@@H](CCC(=O)O)C(=O)N[C@@H](Cc1c[nH]c2ccccc12)C(=O)N[C@@H](CC(C)C)C(=O)N[C@@H](CCCCN)C(=O)N[C@@H](C)C(=O)NCC(=O)NCC(=O)N1CCC[C@H]1C(=O)N[C@@H](CO)C(=O)N[C@@H](CO)C(=O)NCC(=O)N[C@@H](C)C(=O)N1CCC[C@H]1C(=O)N1CCC[C@H]1C(=O)N1CCC[C@H]1C(=O)N[C@@H](CO)C(N)=O)[C@@H](C)CC)C(=O)O [compound 23],EC50,human GLP-1 receptor,5.6 pM
same,EC50,human glucagon receptor,126 pM
CCCCCCCCCCCCCCCCCC(=O)N[C@@H](CCC(=O)NCCCC[C@H](NC(=O)[C@H](CCC(N)=O)NC(=O)[C@H](CCCCN)NC(=O)[C@H](CO)NC(=O)[C@H](CC(C)C)NC(=O)[C@H](CC(=O)O)NC(=O)[C@H](CO)NC(=O)[C@@H](NC(=O)[C@H](Cc1ccccc1)NC(=O)[C@@H](NC(=O)CNC(=O)[C@H](CCC(N)=O)NC(=O)[C@@H](CO)NC(=O)[C@@H](N)Cc1c[nH]cn1)[C@@H](C)O)[C@@H](C)O)C(=O)N[C@@H](CCC(=O)O)C(=O)N[C@@H](CO)C(=O)N[C@@H](CCCCN)C(=O)N[C@@H](C)C(=O)N[C@@H](C)C(=O)N[C@@H](CCC(N)=O)C(=O)N[C@@H](CC(=O)O)C(=O)N[C@@H](Cc1ccccc1)C(=O)N[C@H](C(=O)N[C@@H](CCC(=O)O)C(=O)N[C@@H](Cc1c[nH]c2ccccc12)C(=O)N[C@@H](CC(C)C)C(=O)N[C@@H](CCCCN)C(=O)N[C@@H](C)C(=O)NCC(=O)NCC(=O)N1CCC[C@H]1C(=O)N[C@@H](CO)C(=O)N[C@@H](CO)C(=O)NCC(=O)N[C@@H](C)C(=O)N1CCC[C@H]1C(=O)N1CCC[C@H]1C(=O)N1CCC[C@H]1C(=O)N[C@@H](CO)C(N)=O)[C@@H](C)CC)C(=O)O [compound 26],EC50,human GLP-1 receptor,5.1 pM
same,EC50,human glucagon receptor,5.4 pM
CCCCCCCCCCCCCCCC(=O)N[C@@H](CCC(=O)NCCCC[C@H](NC(=O)[C@H](CCC(N)=O)NC(=O)[C@H](CCCCN)NC(=O)[C@H](CO)NC(=O)[C@H](CC(C)C)NC(=O)[C@H](CC(=O)O)NC(=O)[C@H](CO)NC(=O)[C@@H](NC(=O)[C@H](Cc1ccccc1)NC(=O)[C@@H](NC(=O)CNC(=O)[C@H](CCC(N)=O)NC(=O)[C@@H](CO)NC(=O)[C@@H](N)Cc1c[nH]cn1)[C@@H](C)O)[C@@H](C)O)C(=O)N[C@@H](CCC(=O)O)C(=O)N[C@@H](CO)C(=O)N[C@@H](CCCCN)C(=O)N[C@@H](C)C(=O)N[C@@H](C)C(=O)N[C@@H](CCC(N)=O)C(=O)N[C@@H](CCC(=O)O)C(=O)N[C@@H](Cc1ccccc1)C(=O)N[C@H](C(=O)N[C@@H](CCC(=O)O)C(=O)N[C@@H](Cc1c[nH]c2ccccc12)C(=O)N[C@@H](CC(C)C)C(=O)N[C@@H](CCCCN)C(=O)N[C@@H](C)C(=O)NCC(=O)NCC(=O)N1CCC[C@H]1C(=O)N[C@@H](CO)C(=O)N[C@@H](CO)C(=O)NCC(=O)N[C@@H](C)C(=O)N1CCC[C@H]1C(=O)N1CCC[C@H]1C(=O)N1CCC[C@H]1C(=O)N[C@@H](CO)C(N)=O)[C@@H](C)CC)C(=O)O [compound 28],EC50,human GLP-1 receptor,5.5 pM
same,EC50,human glucagon receptor,12.6 pM
CCCCCCCCCCCCCCCC(=O)N[C@@H](CCC(=O)NCCCC[C@H](NC(=O)[C@H](CCC(N)=O)NC(=O)[C@H](CCCCN)NC(=O)[C@H](CO)NC(=O)[C@H](CC(C)C)NC(=O)[C@H](CC(=O)O)NC(=O)[C@H](CO)NC(=O)[C@@H](NC(=O)[C@H](Cc1ccccc1)NC(=O)[C@@H](NC(=O)CNC(=O)[C@H](CCC(N)=O)NC(=O)[C@@H](CO)NC(=O)[C@@H](N)Cc1c[nH]cn1)[C@@H](C)O)[C@@H](C)O)C(=O)N[C@@H](CCC(=O)O)C(=O)N[C@@H](CO)C(=O)N[C@@H](CCCCN)C(=O)N[C@@H](C)C(=O)N[C@@H](C)C(=O)N[C@@H](CCC(N)=O)C(=O)N[C@@H](CC(C)C)C(=O)N[C@@H](Cc1ccccc1)C(=O)N[C@H](C(=O)N[C@@H](CCC(=O)O)C(=O)N[C@@H](Cc1c[nH]c2ccccc12)C(=O)N[C@@H](CC(C)C)C(=O)N[C@@H](CCCCN)C(=O)N[C@@H](C)C(=O)NCC(=O)NCC(=O)N1CCC[C@H]1C(=O)N[C@@H](CO)C(=O)N[C@@H](CO)C(=O)NCC(=O)N[C@@H](C)C(=O)N1CCC[C@H]1C(=O)N1CCC[C@H]1C(=O)N1CCC[C@H]1C(=O)N[C@@H](CO)C(N)=O)[C@@H](C)CC)C(=O)O [compound 29],EC50,human GLP-1 receptor,5.9 pM
same,EC50,human glucagon receptor,87.9 pM
